Yeast mating assay 1: variants of the scFv Ab-14

Target peptide (SARS-CoV-2 spike, HR2 region): PDVDLGDISGINAS

Parent scFv Ab-14: VH joined to VL by three GGGGS repeats. Changes lie in the light chain CDRs alone.
VH: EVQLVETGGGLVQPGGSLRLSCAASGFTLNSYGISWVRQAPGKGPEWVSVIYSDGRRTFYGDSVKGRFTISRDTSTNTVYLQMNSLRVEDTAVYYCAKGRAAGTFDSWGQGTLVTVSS
VL: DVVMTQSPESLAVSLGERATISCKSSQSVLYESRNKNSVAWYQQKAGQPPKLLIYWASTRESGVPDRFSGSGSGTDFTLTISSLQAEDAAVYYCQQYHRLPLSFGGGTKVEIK

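Phage display of a naive human antibody library on the peptide gave the parent. Library AAYL50 holds single substitutions and randomly drawn double and triple substitutions in the CDRs. Affinity was read by AlphaSeq, a pooled yeast mating assay with surface-displayed partners. The frequency of each diploid, read from paired DNA barcodes, reflects how well the two displayed proteins bind. A regression on co-assayed BCL2-family reference pairs converts the normalised counts of each replicate to an apparent Kd. Mating was done three times.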

Substitutions are numbered in sequence along the VL above, starting at 1 (not Kabat). Values are log10 of the apparent Kd in nM; lower means stronger binding. Replicates are averaged; those with no signal do not enter the mean. A pair that was not seen in any replicate is written "no signal"; this usually means weak binding, but a binder can also be missed. Entries are sorted by rising average, undetected variants last.

| # | changes | mean log10 Kd (nM) | seen in | empty controls |
|---|---|---|---|---|
| 1 | W56Q H98D S103P | 0.16 | 3/3 | 1/9 |
| 2 | K24Q S25A E32D | 0.65 | 3/3 | 3/9 |
| 3 | Q27E S62E Q96D | 0.76 | 3/3 | 1/9 |
| 4 | Q27Y K36C S38N | 0.81 | 3/3 | 2/9 |
| 5 | K24L S26M Y31D | 0.84 | 3/3 | 0/9 |
| 6 | Y31M W56Y | 0.92 | 3/3 | 6/9 |
| 7 | S33M R34T E61K | 1.04 | 3/3 | 1/9 |
| 8 | S25D S28E V29S | 1.06 | 3/3 | 0/9 |
| 9 | S26V E32D K36A | 1.54 | 3/3 | 0/9 |
| 10 | S26R Q27S R99I | 1.76 | 3/3 | 1/9 |
| 11 | N37Q R99A L102G | 1.87 | 3/3 | 2/9 |
| 12 | S26V E32M E61N | 1.89 | 2/3 | 0/9 |
| 13 | R34I K36H E61T | 2.00 | 3/3 | 2/9 |
| 14 | Y31F N37S S38Q | 2.20 | 3/3 | 3/9 |
| 15 | Y31Q N35L N37S | 2.22 | 3/3 | 0/9 |
| 16 | S33L H98Y S103Q | 2.22 | 2/3 | 1/9 |
| 17 | S26I R34V N37R | 2.25 | 3/3 | 0/9 |
| 18 | N37A Q96V P101W | 2.28 | 3/3 | 3/9 |
| 19 | E32A K36A R60T | 2.42 | 3/3 | 1/9 |
| 20 | S28H L30K R34G | 2.45 | 1/3 | 1/9 |
| 21 | K24T E32R S62T | 2.46 | 3/3 | 4/9 |
| 22 | E61P Q96K H98Q | 2.49 | 1/3 | 0/9 |
| 23 | S26R S62F Q95G | 2.95 | 3/3 | 2/9 |
| 24 | K24T Y31R K36V | 3.16 | 1/3 | 1/9 |
| 25 | N35I N37D E61P | 3.22 | 1/3 | 1/9 |
| 26 | V29M L30N Y97M | 3.23 | 1/3 | 2/9 |
| 27 | K36L Q96R R99K | 3.26 | 3/3 | 0/9 |
| 28 | E32D K36E L100S | 3.29 | 3/3 | 7/9 |
| 29 | K36T Q96M L100T | 3.34 | 1/3 | 3/9 |
| 30 | S25D S33H A40M | 4.27 | 1/3 | 0/9 |
| 31 | W56G R99H L102C | 4.59 | 3/3 | 1/9 |
| 32 | V39Q W56M R99C | 4.78 | 1/3 | 0/9 |
| 33 | A40K S58F Y97M | 4.85 | 1/3 | 3/9 |
| 34 | E32F P101G S103Y | 4.97 | 2/3 | 3/9 |
| 35 | E61N Y97T P101E | 5.11 | 3/3 | 7/9 |
| 36 | S38W L100P | no signal | 0/3 | 2/9 |
| 37 | K36I A57Q P101W | no signal | 0/3 | 0/9 |
| 38 | V29W N35L R99W | no signal | 0/3 | 3/9 |
| 39 | S26L A57L R99Y | no signal | 0/3 | 0/9 |
| 40 | Q27A L30Q A40E | no signal | 0/3 | 0/9 |
| 41 | S25M Q95L S103Q | no signal | 0/3 | 1/9 |
| 42 | V39P T59F Y97N | no signal | 0/3 | 0/9 |
| 43 | N37L A40F S103Q | no signal | 0/3 | 2/9 |
| 44 | V29C S38L | no signal | 0/3 | 0/9 |
| 45 | N35E Q95N S103V | no signal | 0/3 | 0/9 |
| 46 | N35G A40I E61K | no signal | 0/3 | 0/9 |
| 47 | Q27L S28L | no signal | 0/3 | 0/9 |
| 48 | E61W Q95T Y97K | no signal | 0/3 | 0/9 |
| 49 | T59E L102G | no signal | 0/3 | 0/9 |
| 50 | R34F A40D Q96S | no signal | 0/3 | 0/9 |
| 51 | Q96P H98G P101D | no signal | 0/3 | 4/9 |
| 52 | L30W S33F A40P | no signal | 0/3 | 0/9 |
| 53 | E32R W56H Y97L | no signal | 0/3 | 0/9 |
| 54 | V39S R99T L100I | no signal | 0/3 | 0/9 |

The opening 7 entries, copied out:

| changes | mean log10 Kd (nM) | seen in | empty controls |
|---|---|---|---|
| W56Q H98D S103P | 0.16 | 3/3 | 1/9 |
| K24Q S25A E32D | 0.65 | 3/3 | 3/9 |
| Q27E S62E Q96D | 0.76 | 3/3 | 1/9 |
| Q27Y K36C S38N | 0.81 | 3/3 | 2/9 |
| K24L S26M Y31D | 0.84 | 3/3 | 0/9 |
| Y31M W56Y | 0.92 | 3/3 | 6/9 |
| S33M R34T E61K | 1.04 | 3/3 | 1/9 |

Parent in this assay: reference entry 0.65, copy in this library 1.68. Nonspecific signal, from three strains lacking the peptide, appeared in 18% of pairings of library AAYL50, centred on 4.19 (5% of these signals below 2.99); values are not corrected for it. Also given: how often the same scFv was detected with the empty control strains.

Reference: Engelhart et al. 2022, doi:10.1038/s41597-022-01779-4. File: FLAb, binding data.